Reference: patent US9631001B2, “Peptide antagonists of the vasopressin-2 receptor” (COMMISSARIAT A L'ENERGIE ATOMIQUE ET AUX ENERGIES …, priority 2012, dated 2017)

Sequences of proteins named here, by UniProt entry; tags and fusion partners are left off. A change or cut given only in a name is not applied to a line headed by its entry.
UniProt P30518, whole entry: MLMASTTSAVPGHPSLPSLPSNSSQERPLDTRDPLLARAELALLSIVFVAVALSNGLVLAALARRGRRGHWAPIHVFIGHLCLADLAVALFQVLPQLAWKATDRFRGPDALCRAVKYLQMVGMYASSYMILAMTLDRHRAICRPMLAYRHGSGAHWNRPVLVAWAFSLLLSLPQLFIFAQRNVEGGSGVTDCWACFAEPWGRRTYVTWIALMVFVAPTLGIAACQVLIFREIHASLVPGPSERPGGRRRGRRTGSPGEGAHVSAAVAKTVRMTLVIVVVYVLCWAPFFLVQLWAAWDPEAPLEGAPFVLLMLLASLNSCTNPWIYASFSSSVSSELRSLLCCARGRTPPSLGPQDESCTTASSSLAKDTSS

Molecular target: vasopressin V2 receptor subtype (V2R) (Homo sapiens, UniProt P30518)
Assay: 3H-AVP competition binding on V2R membranes
Conditions: binding inhibition of 3H-AVP on V2R (FIG. 16)

**Q.** With `CC[C@H](C)[C@@H]1NC(=O)[C@H]([C@@H](C)O)NC(=O)[C@H](CO)NC(=O)[C@H](Cc2ccccc2)NC(=O)[C@H](CCCNC(=N)N)NC(=O)[C@H](CC(N)=O)NC(=O)[C@H](C)NC(=O)[C@H](CC(N)=O)NC(=O)CNC(=O)[C@H](CCCCN)NC(=O)[C@@H]2CSSC[C@@H]3NC(=O)[C@@H]4CCCN4C(=O)CNC(=O)[C@@H]4CCCN4C(=O)[C@H](CCCCN)NC(=O)[C@H](C(C)C)NC(=O)[C@@H]4CCCN4C(=O)[C@H](CC(C)C)NC(=O)[C@H](CC(N)=O)NC(=O)[C@@H](NC(=O)[C@H](Cc4ccccc4)NC(=O)[C@H](CO)NC(=O)[C@@H]4CCCN4C(=O)[C@@H](N)CCCNC(=N)N)CSSC[C@@H](C(=O)N[C@H](C(=O)NCC(=O)O)C(C)C)NC(=O)[C@H]([C@@H](C)O)NC(=O)[C@H](CCCNC(=N)N)NC(=O)[C@H](CCCNC(=N)N)NC(=O)[C@H](CSSC[C@H](NC(=O)[C@H](CCCCN)NC(=O)[C@H](CC(N)=O)NC(=O)[C@H]([C@@H](C)O)NC(=O)[C@H](CCCCN)NC(=O)[C@H](CCC(N)=O)NC(=O)[C@H](CO)NC(=O)[C@H](Cc4ccc(O)cc4)NC(=O)[C@H](Cc4ccc(O)cc4)NC(=O)[C@H](Cc4ccccc4)NC(=O)[C@H](C)NC(=O)[C@H](CO)NC(=O)[C@H](Cc4ccccc4)NC(=O)[C@H](Cc4ccccc4)NC(=O)CNC(=O)[C@H](CC(N)=O)NC3=O)C(=O)N[C@@H](Cc3c[nH]cn3)C(=O)N[C@@H](CO)C(=O)N[C@@H](Cc3ccccc3)C(=O)N[C@@H]([C@@H](C)O)C(=O)N[C@@H](Cc3ccc(O)cc3)C(=O)NCC(=O)NCC(=O)N2)NC(=O)[C@H](CCCCN)NC(=O)[C@H](CCC(=O)O)NC1=O` [U-Da2a] as the compound, how does the pKi read?
**A.** The pKi was 8.99.

pKi: −log10 of the molar value.
